{"source": "patent US6531156B1", "about": "“Aqueous solven encapsulation method, apparatus and microcapsules” (Temple University, priority 1994, dated 2003)", "conditions": "spermine alginate microcapsules, 5 water washes, absorbance after dissolving microcapsules with sodium chloride", "data": [{"substance": "blue dextran", "values": [{"measurement": "initial amount of core material retained in the microcapsules during the repeated washings", "value": "more than half"}]}]}
